Test results from patent US20210276987A1, “PHARMACEUTICAL AGENTS FOR USE IN SMOKING AND TOBACCO CESSATION” (Washington State University, priority 2018, published 2021).
Where a name gives a salt, the structure may show the parent alone. Read-outs that look alike come from different tables or passages of the source.

Protein sequences, listed by entry. Tags and fused reporters are not part of them. Lines headed by an entry give the natural chain unless they say otherwise; changes in a name come on top.
UniProt P10632, whole entry: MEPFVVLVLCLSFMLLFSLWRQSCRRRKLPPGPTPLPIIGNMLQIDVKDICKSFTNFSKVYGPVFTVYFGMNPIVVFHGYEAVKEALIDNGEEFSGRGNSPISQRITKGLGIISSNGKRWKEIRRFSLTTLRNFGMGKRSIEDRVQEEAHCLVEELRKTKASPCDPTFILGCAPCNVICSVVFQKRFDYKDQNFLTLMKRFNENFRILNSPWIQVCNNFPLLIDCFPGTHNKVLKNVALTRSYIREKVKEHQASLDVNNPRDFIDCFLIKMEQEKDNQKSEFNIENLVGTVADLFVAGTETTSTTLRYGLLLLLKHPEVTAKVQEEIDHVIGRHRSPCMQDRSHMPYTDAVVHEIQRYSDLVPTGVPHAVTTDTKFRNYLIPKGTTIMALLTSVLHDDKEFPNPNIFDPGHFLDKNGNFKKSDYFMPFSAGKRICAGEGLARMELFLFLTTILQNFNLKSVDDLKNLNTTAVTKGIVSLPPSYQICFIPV
UniProt P05181: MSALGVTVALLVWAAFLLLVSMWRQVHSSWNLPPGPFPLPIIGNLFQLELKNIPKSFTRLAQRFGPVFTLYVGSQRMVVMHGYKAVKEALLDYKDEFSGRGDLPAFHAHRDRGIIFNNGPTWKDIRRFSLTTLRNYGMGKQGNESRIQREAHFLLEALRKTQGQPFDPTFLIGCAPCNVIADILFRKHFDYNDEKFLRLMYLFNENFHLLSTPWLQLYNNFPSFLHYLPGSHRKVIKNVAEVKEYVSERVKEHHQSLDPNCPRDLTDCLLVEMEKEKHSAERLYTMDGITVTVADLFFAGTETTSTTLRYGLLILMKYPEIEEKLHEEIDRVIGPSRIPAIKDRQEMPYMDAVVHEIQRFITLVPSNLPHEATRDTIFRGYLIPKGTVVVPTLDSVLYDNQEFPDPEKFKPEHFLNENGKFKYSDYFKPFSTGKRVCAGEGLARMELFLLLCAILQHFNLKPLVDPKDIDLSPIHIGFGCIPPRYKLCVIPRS
UniProt P33261, whole entry: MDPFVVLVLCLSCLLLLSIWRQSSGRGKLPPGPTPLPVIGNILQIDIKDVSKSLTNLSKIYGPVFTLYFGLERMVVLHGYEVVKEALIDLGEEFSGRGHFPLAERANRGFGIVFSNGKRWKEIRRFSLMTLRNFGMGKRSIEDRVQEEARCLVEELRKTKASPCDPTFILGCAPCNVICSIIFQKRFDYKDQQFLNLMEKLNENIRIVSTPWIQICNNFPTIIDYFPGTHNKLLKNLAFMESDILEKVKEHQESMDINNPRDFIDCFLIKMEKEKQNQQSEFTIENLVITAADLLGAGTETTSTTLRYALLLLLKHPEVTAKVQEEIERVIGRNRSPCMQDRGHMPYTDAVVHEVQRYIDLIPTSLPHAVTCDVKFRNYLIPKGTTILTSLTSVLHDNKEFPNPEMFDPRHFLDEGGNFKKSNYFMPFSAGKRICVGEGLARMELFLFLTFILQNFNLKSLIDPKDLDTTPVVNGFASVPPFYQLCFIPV
UniProt P20813: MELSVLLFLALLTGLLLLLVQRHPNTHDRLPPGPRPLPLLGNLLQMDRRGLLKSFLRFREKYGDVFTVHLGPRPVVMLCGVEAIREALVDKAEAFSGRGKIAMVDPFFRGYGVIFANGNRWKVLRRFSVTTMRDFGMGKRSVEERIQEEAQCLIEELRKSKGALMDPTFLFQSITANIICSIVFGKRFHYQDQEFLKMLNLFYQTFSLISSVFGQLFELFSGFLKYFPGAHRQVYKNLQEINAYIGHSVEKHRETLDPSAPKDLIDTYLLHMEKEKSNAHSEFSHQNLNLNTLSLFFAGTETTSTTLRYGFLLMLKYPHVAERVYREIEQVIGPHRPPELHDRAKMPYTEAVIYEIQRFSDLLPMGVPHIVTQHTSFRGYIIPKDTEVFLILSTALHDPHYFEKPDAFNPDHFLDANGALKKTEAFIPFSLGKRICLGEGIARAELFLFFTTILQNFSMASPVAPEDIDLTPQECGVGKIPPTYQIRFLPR
UniProt P10635, whole entry: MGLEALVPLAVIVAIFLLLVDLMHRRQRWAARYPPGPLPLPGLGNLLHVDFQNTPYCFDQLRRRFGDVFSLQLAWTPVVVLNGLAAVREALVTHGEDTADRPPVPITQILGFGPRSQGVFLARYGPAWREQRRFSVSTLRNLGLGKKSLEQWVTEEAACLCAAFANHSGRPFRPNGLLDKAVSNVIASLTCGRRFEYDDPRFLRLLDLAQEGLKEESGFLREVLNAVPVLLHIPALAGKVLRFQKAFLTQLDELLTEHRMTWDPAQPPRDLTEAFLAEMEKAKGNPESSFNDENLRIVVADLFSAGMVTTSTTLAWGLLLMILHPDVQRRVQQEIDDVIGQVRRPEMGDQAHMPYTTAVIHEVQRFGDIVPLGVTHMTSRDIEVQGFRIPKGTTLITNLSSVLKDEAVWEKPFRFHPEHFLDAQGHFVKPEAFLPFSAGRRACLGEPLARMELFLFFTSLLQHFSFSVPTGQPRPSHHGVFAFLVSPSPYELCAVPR
UniProt P11712, whole entry: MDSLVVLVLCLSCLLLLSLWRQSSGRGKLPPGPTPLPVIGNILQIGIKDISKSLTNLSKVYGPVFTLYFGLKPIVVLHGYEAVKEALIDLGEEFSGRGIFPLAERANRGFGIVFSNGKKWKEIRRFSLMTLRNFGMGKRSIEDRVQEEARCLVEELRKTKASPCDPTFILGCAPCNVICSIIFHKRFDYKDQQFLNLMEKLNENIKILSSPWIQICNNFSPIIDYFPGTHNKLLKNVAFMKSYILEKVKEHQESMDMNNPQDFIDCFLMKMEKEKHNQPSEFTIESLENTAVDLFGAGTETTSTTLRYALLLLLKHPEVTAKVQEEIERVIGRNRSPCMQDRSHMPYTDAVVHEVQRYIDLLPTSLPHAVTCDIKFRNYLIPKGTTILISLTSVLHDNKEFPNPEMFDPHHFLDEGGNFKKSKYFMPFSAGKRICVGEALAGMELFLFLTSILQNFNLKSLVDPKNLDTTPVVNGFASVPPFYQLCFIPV
UniProt P05177, whole entry: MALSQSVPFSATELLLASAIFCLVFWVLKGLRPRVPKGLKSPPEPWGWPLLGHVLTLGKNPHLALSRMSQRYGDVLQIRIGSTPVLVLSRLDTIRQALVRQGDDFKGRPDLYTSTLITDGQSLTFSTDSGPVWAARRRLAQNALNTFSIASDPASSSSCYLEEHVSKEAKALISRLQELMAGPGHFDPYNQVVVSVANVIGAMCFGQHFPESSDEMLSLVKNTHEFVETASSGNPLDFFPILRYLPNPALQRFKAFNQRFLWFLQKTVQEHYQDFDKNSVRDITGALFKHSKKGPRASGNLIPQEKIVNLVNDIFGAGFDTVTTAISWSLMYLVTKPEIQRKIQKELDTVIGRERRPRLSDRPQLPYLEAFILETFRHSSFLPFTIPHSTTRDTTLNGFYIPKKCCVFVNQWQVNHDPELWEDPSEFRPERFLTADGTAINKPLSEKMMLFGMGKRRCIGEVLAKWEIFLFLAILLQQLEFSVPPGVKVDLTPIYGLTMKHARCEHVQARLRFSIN

How the values were obtained:
CYP2C8 = CYP2C8 (Homo sapiens, UniProt P10632)
CYP2E1 = CYP2E1 (Homo sapiens, UniProt P05181)
CYP2C19 [1] = biological target: T1, CYP2C19 (Homo sapiens, UniProt P33261); conditions: both, microsomes, pH 7.4
CYP2B6 = CYP2B6 (Homo sapiens, UniProt P20813)
CYP2D6 = CYP2D6 (Homo sapiens, UniProt P10635); conditions: both, microsomes, pH 7.4
CYP2C9 = CYP2C9 (Homo sapiens, UniProt P11712); conditions: both, microsomes, pH 7.4
CYP2A6 [2] = biological target: T2, CYP2A6 (Homo sapiens, UniProt P11509); conditions: both, microsomes, pH 7.4
T2 sequence (P11509 1-494): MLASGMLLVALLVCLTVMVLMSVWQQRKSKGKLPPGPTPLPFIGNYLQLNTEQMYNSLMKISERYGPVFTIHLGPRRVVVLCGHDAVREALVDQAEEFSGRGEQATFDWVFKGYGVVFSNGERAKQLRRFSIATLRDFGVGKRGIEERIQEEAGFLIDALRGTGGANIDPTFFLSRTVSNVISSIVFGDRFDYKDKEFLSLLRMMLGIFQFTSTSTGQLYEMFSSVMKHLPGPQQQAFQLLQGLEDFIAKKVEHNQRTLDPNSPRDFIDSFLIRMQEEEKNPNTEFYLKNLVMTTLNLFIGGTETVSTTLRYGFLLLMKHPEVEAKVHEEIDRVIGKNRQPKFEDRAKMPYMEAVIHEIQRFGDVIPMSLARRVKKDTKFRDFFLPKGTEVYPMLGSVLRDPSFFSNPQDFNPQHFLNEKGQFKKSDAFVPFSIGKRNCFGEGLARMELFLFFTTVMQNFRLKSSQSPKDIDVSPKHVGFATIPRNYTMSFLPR

CYP2A6 [3] = biological target: T2, CYP2A6; assay: biochemical; conditions: IC50 against CYP2A6; human liver microsomes
CYP2C19 [4] = biological target: T1, CYP2C19; assay: CYP2C19 inhibition assay, human liver microsomes, omeprazole probe (cocktail); conditions: Table 6
CYP1A2 = CYP1A2 (Homo sapiens, UniProt P05177); assay: CYP1A2 inhibition assay, human liver microsomes, phenacetin probe (cocktail); conditions: Table 6
[5] = both, human, microsomes, pH 7.4

Cc1ccncc1C#CCN [Compound C, 3-(4-methylpyridin-3-yl)prop-2-yn-1-amine]
IC50 ratio CYP2C8/CYP2A6 (CYP2C8; [5]): 156
IC50 ratio CYP2E1/CYP2A6 (CYP2E1; [5]): 345
IC50 ratio CYP2C19/CYP2A6 (CYP2C19 [1]): 145
IC50 ratio CYP2B6/CYP2A6 (CYP2B6; [5]): 364
IC50 ratio CYP2D6/CYP2A6 (CYP2D6): 44
IC50 ratio CYP2C9/CYP2A6 (CYP2C9): 655

NCc1ccc(-c2cnccc2-c2ccco2)s1 [Compound AD, (5-(4-(furan-2-yl)pyridin-3-yl)thiophene-2-yl)methanamine Dihydrochloride]
IC50 (CYP2A6 [2]): 160 nM
IC50 (CYP2A6 [3]): ≤ 160 nM

NCC#Cc1cnccc1-c1ccco1 [Compound M, 3-(4-Furan-2-yl-pyridin-3-yl)-prop-2-ynylamine Dihydrochloride]
IC50 ratio CYP2C8/CYP2A6 (CYP2C8; Table 6): 13
IC50 ratio CYP2E1/CYP2A6 (CYP2E1; Table 6): 3.4
IC50 ratio CYP2C19/CYP2A6 (CYP2C19 [4]): 6.6
IC50 ratio CYP2B6/CYP2A6 (CYP2B6; Table 6): 8.9
IC50 ratio CYP1A2/CYP2A6 (CYP1A2): 2.5
